Consider 24 molecules from EP4840868A1, “NOVEL DISACCHARIDE LINKER, PREPARATION METHOD THEREFOR AND USE THEREOF” (dated 2026).

Sequences of proteins named here, by UniProt entry; tags and fusion partners are left off. Residues count along the entry.
UniProt Q99Y92, 37-995 limits assumed: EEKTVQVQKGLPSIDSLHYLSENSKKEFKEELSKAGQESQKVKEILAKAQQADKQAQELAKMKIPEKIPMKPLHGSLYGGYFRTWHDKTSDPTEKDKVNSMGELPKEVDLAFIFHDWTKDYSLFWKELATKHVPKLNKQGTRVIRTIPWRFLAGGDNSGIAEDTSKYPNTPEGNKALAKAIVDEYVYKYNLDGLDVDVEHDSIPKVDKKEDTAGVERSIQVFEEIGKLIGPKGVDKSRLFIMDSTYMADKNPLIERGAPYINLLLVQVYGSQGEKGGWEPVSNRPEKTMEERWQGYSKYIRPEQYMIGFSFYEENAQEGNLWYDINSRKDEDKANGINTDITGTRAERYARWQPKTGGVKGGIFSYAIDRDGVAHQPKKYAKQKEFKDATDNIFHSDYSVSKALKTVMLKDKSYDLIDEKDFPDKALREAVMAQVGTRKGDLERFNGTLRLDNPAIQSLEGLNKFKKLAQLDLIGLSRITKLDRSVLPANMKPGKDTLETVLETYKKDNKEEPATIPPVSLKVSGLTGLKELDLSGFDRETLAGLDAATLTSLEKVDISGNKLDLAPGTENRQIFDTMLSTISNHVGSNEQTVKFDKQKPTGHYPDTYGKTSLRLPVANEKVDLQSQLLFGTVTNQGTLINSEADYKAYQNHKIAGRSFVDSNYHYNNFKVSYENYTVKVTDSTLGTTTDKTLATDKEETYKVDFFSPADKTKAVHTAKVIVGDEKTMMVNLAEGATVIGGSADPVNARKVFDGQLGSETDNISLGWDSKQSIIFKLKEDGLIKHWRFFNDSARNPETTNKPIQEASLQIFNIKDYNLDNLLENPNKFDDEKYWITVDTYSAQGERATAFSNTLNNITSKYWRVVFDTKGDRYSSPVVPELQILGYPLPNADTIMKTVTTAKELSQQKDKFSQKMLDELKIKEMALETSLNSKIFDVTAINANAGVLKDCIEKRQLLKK
UniProt T1WGN1, 38-843 limits assumed: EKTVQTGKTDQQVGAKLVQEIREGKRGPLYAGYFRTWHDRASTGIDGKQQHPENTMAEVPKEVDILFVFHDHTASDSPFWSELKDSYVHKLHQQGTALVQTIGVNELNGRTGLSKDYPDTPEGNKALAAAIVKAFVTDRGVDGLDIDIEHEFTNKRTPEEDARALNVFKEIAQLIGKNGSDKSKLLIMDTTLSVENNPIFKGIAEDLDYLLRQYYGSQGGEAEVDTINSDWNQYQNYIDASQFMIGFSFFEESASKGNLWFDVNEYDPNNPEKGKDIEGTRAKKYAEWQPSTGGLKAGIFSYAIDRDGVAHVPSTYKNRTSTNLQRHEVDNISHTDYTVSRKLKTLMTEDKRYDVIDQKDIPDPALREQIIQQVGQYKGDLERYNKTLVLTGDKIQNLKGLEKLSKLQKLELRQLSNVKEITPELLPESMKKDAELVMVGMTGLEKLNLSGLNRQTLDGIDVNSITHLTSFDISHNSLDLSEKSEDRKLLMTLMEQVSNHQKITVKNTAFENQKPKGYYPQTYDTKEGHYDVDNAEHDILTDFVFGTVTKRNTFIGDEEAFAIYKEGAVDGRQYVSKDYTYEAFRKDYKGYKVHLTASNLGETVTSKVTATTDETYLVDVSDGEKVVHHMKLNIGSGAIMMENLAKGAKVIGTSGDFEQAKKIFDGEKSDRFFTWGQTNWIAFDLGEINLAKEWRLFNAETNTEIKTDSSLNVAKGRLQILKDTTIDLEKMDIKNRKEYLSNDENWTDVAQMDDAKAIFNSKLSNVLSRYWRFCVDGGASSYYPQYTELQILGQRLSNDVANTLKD

What all share (experiment): Substrate specificity: transglycosylation of disaccharide linkers onto wild-type pertuzumab, LC-MS
One test has as its target Endo S (Streptococcus pyogenes serotype M1, UniProt Q99Y92). To be noted: Endo S 0.4 mg/mL; wild-type pertuzumab 10 mg/mL; linker 1.67 mM; pH 7.4, 25°C; after 6 hours.
For the next test, the system named is Endo Se2. To be noted: Endo Se2 0.4 mg/mL; wild-type pertuzumab 10 mg/mL; linker 1.67 mM; pH 7.4, 25°C; after 6 hours.
In the next test the test system is Endo Si. To be noted: Endo Si 0.4 mg/mL; wild-type pertuzumab 10 mg/mL; linker 1.67 mM; pH 7.4, 25°C; after 6 hours.
The next test has as its target Endo S2 (Streptococcus pyogenes serotype M49, UniProt T1WGN1). The note with it: Endo S2 0.4 mg/mL; wild-type pertuzumab 10 mg/mL; linker 1.67 mM; pH 7.4, 25°C; after 6 hours.

As for `CCC1=N[C@H]2[C@@H](O1)O[C@H](CO)[C@@H](O[C@@H]1O[C@H](CN=[N+]=[N-])[C@H](O)[C@H](O)[C@H]1O)[C@@H]2O`, the “Transglycosylation efficiency (%)” value on Endo S is listed as 33.2%; with Endo Se2, greater than 95%; in the test with Endo Si, greater than 95%; on Endo S2, 79.9%.
`CC1=N[C@H]2[C@@H](O1)O[C@H](CN=[N+]=[N-])[C@@H](O[C@@H]1O[C@H](CN=[N+]=[N-])[C@H](O)[C@H](O)[C@H]1O)[C@@H]2O`: the “Transglycosylation efficiency (%)” value at Endo S is listed as 10.8%; with Endo Se2 it was greater than 95%; with Endo Si it was greater than 95%; on Endo S2, 25%.
Turning to `CCC1=N[C@H]2[C@@H](O1)O[C@H](CN=[N+]=[N-])[C@@H](O[C@@H]1O[C@H](CNC(=O)Cc3ccc(-c4nnc(C)nn4)cc3)[C@H](O)[C@H](O)[C@H]1O)[C@@H]2O`, the “Transglycosylation efficiency (%)” value is reported as 9.7% on Endo S, 59.4% in the test with Endo Se2, greater than 95% in the test on Endo Si and 13.1% at Endo S2.
For the molecule `CC1=N[C@H]2[C@@H](O1)O[C@H](CN=[N+]=[N-])[C@@H](O[C@@H]1O[C@H](CNC(=O)c3ccc(-c4nnc(C)nn4)cc3)[C@H](O)[C@H](O)[C@H]1O)[C@@H]2O`, the “Transglycosylation efficiency (%)” value at Endo S was 5.1%; in the test with Endo Se2, 17.7%; with Endo Si it was 60.7%; at Endo S2 it was 6.7%.
For the molecule `CC1=N[C@H]2[C@@H](O1)O[C@H](CO)[C@@H](S[C@@H]1O[C@H](CNC(=O)Cc3ccc(-c4nnc(C)nn4)cc3)[C@H](O)[C@H](O)[C@H]1O)[C@@H]2O`, the “Transglycosylation efficiency (%)” value on Endo S is 5.8%; in the test with Endo Se2, 34.4%; in the test on Endo Si, greater than 95%; on Endo S2 it was 10.2%.
Regarding `[N-]=[N+]=NCCC1=N[C@H]2[C@@H](O1)O[C@H](CO)[C@@H](O[C@@H]1O[C@H](CO)[C@H](O)[C@H](O)[C@H]1O)[C@@H]2O`, the “Transglycosylation efficiency (%)” value at Endo S is given as 0%; in the test with Endo Se2 it was 75.3%; with Endo Si it was 51.8%; on Endo S2, 6.9%.
As for `C#C[C@H]1O[C@@H]2OC(C)=N[C@@H]2[C@@H](O)[C@@H]1O[C@@H]1O[C@H](CO)[C@H](O)[C@H](O)[C@H]1O`, the “Transglycosylation efficiency (%)” value on Endo S was found to be 17.8%; in the test on Endo Se2, 16.1%; in the test with Endo Si it was 38.4%; on Endo S2, 13.9%.
The like results for `CCC1=N[C@H]2[C@@H](O1)O[C@H](CO)[C@@H](O[C@@H]1O[C@H](C=NOCCN=[N+]=[N-])[C@H](O)[C@H](O)[C@H]1O)[C@@H]2O` were, in that order, 81.4%, 80.1%, greater than 95% and greater than 95%.
In the case of `CC1=N[C@H]2[C@@H](O1)O[C@H](CN=[N+]=[N-])[C@@H](O[C@@H]1O[C@H](CNC(=O)CCOCCOCCOCCN=[N+]=[N-])[C@H](O)[C@H](O)[C@H]1O)[C@@H]2O`, the “Transglycosylation efficiency (%)” value was 24.1% on Endo S, greater than 95% in the test on Endo Se2, greater than 95% in the test with Endo Si and 35.3% on Endo S2.
As to `CC1=N[C@H]2[C@@H](O1)O[C@H](CO)[C@@H](S[C@@H]1O[C@H](C=NOCCNC(=O)CCC(=O)N3Cc4ccccc4C#Cc4ccccc43)[C@H](O)[C@H](O)[C@H]1O)[C@@H]2O`, the “Transglycosylation efficiency (%)” value at Endo S is given as 7.6%; in the test with Endo Se2, 36.3%; with Endo Si, greater than 95%; at Endo S2 it was 4.7%.
Turning to `CC1=N[C@H]2[C@@H](O1)O[C@H](CN=[N+]=[N-])[C@@H](O[C@@H]1O[C@H](CNC(=O)Cc3ccc(-c4nnc(C)nn4)cc3)[C@H](O)[C@H](O)[C@H]1O)[C@@H]2O`, the “Transglycosylation efficiency (%)” value on Endo S is given as 20.9%; in the test on Endo Se2, 34.1%; in the test with Endo Si, greater than 95%; on Endo S2, 23.5%.
Regarding `[N-]=[N+]=NCCOCCOCCOCCC(=O)NC[C@H]1O[C@@H](O[C@H]2[C@H](O)[C@H]3N=C(CN=[N+]=[N-])O[C@H]3O[C@@H]2CO)[C@H](O)[C@@H](O)[C@H]1O`, the “Transglycosylation efficiency (%)” value at Endo S is given as 11.7%; with Endo Se2, 88.4%; with Endo Si it was 60.8%; on Endo S2, 29.9%.
Consider `[N-]=[N+]=NCC(=O)N[C@H]1[C@H](O[C@H]2[C@H](O)[C@H]3N=C(CN=[N+]=[N-])O[C@H]3O[C@@H]2CO)O[C@H](CO)[C@@H](O)[C@@H]1O`, for which the “Transglycosylation efficiency (%)” value on Endo S turned out to be 14.8%; with Endo Se2 it was 14.9%; in the test on Endo Si it was 21.1%; on Endo S2, 14.0%.
On to `[N-]=[N+]=NCC1=N[C@H]2[C@@H](O1)O[C@H](CO)[C@@H](O[C@@H]1O[C@H](CO)[C@@H](O)[C@H](O)[C@H]1O)[C@@H]2O`, for which the “Transglycosylation efficiency (%)” value is listed as 29.4% at Endo S, greater than 95% in the test on Endo Se2, greater than 95% in the test with Endo Si and 72.6% at Endo S2.
As for `[N-]=[N+]=NCC1=N[C@H]2[C@@H](O1)O[C@H](CO)[C@@H](O[C@@H]1O[C@H](CO)[C@@H](O)[C@H](O)[C@@H]1O)[C@@H]2O`, the “Transglycosylation efficiency (%)” value at Endo S was 56.7%; with Endo Se2, 89%; in the test with Endo Si, 77.7%; on Endo S2, 89.8%.
As for `[N-]=[N+]=NCC1=N[C@H]2[C@@H](O1)O[C@H](CN=[N+]=[N-])[C@@H](O[C@@H]1O[C@H](CN=[N+]=[N-])[C@H](O)[C@H](O)[C@H]1O)[C@@H]2O`, the “Transglycosylation efficiency (%)” value at Endo S is 6.6%; with Endo Se2, 80.1%; with Endo Si, greater than 95%; at Endo S2, 7.8%.
In the case of `[N-]=[N+]=NCC1=N[C@H]2[C@@H](O1)O[C@H](CO)[C@@H](O[C@@H]1O[C@H](CN=[N+]=[N-])[C@H](O)[C@H](O)[C@H]1O)[C@@H]2O`, the “Transglycosylation efficiency (%)” value was 0% at Endo S, greater than 95% in the test with Endo Se2, 68.2% in the test on Endo Si and 7.7% at Endo S2.
In the case of `[N-]=[N+]=NCC(=O)N[C@H]1[C@H](O[C@H]2[C@H](O)[C@H]3N=C(CN=[N+]=[N-])O[C@H]3O[C@@H]2CO)O[C@H](CO)[C@H](O)[C@@H]1O`, the “Transglycosylation efficiency (%)” value at Endo S is 15.9%; in the test on Endo Se2 it was 22.5%; in the test on Endo Si, 21.2%; on Endo S2, 23.6%.
Turning to `C#CC[C@H]1O[C@@H]2OC(C)=N[C@@H]2[C@@H](O)[C@@H]1O[C@@H]1O[C@H](CO)[C@H](O)[C@H](O)[C@H]1O`, the “Transglycosylation efficiency (%)” value on Endo S is 24%; in the test with Endo Se2, 94.8%; in the test with Endo Si, greater than 95%; at Endo S2 it was 30%.
On to `CC1=N[C@H]2[C@@H](O1)O[C@H](CO)[C@@H](S[C@@H]1O[C@H](C=NOCC(=O)NC(CCC(=O)NCCCN=[N+]=[N-])C(=O)NCCCN=[N+]=[N-])[C@H](O)[C@H](O)[C@H]1O)[C@@H]2O` (stereo partly drawn), for which the “Transglycosylation efficiency (%)” value on Endo S is reported as 13.6%; in the test with Endo Se2, 94.9%; in the test on Endo Si, greater than 95%; at Endo S2 it was 55%.
The like results for `CC1=N[C@H]2[C@@H](O1)O[C@H](CNC(=O)CCC(=O)N1Cc3ccccc3C#Cc3ccccc31)[C@@H](O[C@@H]1O[C@H](CO)[C@H](O)[C@H](O)[C@H]1O)[C@@H]2O` were, in that order, 17.4%, 13.1%, 10.1% and 8.1%.
As for `CCCC1=N[C@H]2[C@@H](O1)O[C@H](CO)[C@@H](O[C@@H]1O[C@H](C=NOCCN=[N+]=[N-])[C@H](O)[C@H](O)[C@H]1O)[C@@H]2O`, the “Transglycosylation efficiency (%)” value at Endo S worked out at 11.0%; with Endo Se2 it was 94.2%; in the test on Endo Si, 51.3%; at Endo S2, 11.7%.
On to `[N-]=[N+]=NCC1=N[C@H]2[C@@H](O1)O[C@H](CO)[C@@H](O[C@@H]1O[C@H](CO)[C@H](O)[C@H](O)[C@H]1O)[C@@H]2O`, for which the “Transglycosylation efficiency (%)” value at Endo S is recorded as 13%; in the test on Endo Se2, 76.3%; with Endo Si, 90.6%; on Endo S2 it was 36.3%.
On to `[N-]=[N+]=NCC1=N[C@H]2[C@@H](O1)O[C@H](CN=[N+]=[N-])[C@@H](O[C@@H]1O[C@H](CO)[C@H](O)[C@H](O)[C@H]1O)[C@@H]2O`, for which the “Transglycosylation efficiency (%)” value is listed as 2.6% on Endo S, 56.7% in the test on Endo Se2, 93.7% in the test on Endo Si and 6.0% at Endo S2.
